From PubChem
The list is not random: actives were taken first. Their share in the collection is about 1.3%.
PTHR1 agonist: activates the human parathyroid hormone receptor PTHR1. HEK293 GP2 PTHR1 cells, GloSensor cAMP luminescence, 1 h. Potency, µM (titrated, usually from 115 µM), for inactives: at the top dose activation, usual class: activators. actives 0.075% (n = 410,000). AID 743266; note: potency is the fitted concentration of half-maximal effect; nearly all actives have a fitted effect of over 55% in size
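HEK-293-derived GP2 cells expressing PTHR1 and a GloSensor cAMP reporter, 3,000/well, plated overnight, given luciferin plus IBMX (each 0.5 mM as added) for 1 h at 37 °C, then compound for 1 h at 37 °C. Luminescence was read after 15 min at room temperature.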
ERG-DNA inh: ERG Ets/DNA interaction inhibition | fluorescence polarization, His-ERG Ets domain / labelled DNA | actives 0.028% (n = 370,000) | Potency, µM (doses to about 76.9 µM), without a hit: top-dose FP activity, negative = inhibition, hits mostly inhibitors | P11308; active = well fitted inhibition curve with a large enough effect in the polarisation, with a control signal flat; inconclusive = small, poorly fitted or top-dose-only effect, or effect the other way, or a change in a side signal; inactive = no such curve, though single readings can be large or run the other way; the % refers to the polarisation;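 note: polarization taken with two DNA probes labelled with fluorescein and Texas red; potency is the fitted concentration of half-maximal effect; % of control where 0% means no effect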
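His-tagged ERG Ets domain (1 uM in the protein solution; 300mM KCl, 50mM Tris-HCl, 1mM EDTA, 1mM DTT, pH 7.5) received compound, then a probe mix of 5 nM fluorescein-DNA and 100nM Texas-615-DNA. Fluorescence polarization was read for both dyes.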
PINK1 expr mod: changes PINK1 expression. Potency, µM (highest dose often 76.6 µM), for the others: at the top dose activation (PINK1 increase), hits mostly activators. actives 0.2% (n = 410,000). PINK1 immunofluorescence, high-content cytometry, 24 h; active = well fitted activation curve with a large enough effect; inconclusive = small, poorly fitted or top-dose-only effect; cell line not stated here; note: potency is the fitted concentration of half-maximal effect; % of control where 0% means no effect; nearly all actives have a fitted effect of over 65% in size
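Decision-based qHTS: stable cells, 24 h exposure to five compound concentrations, CCCP as control. Fixed cells stained for PINK1 plus nuclear, mitochondrial and cell markers, cytometer read.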
miR-21 FLuc: raises the signal of a miR-21 reporter; 340,000 tested, under 10 active; HeLa miR-21 FLuc reporter, luciferase, 48 h; Potency, µM (series often up to 38.3 µM), for inactives: at the highest dose reporter change, positive = more light; active = well fitted rising curve with a large enough effect; inconclusive = small, poorly fitted or top-dose-only effect; inactive = no such curve, though single readings can be large or run the other way;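 further: % of control where 0% means no effect; miR-21 action dims this reporter so a rising signal means less miR-21 action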
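Using DMEM plus 10% FBS, HeLa miR-21-FLuc cells are incubated with test compounds (final up to about 40uM) for 48 hours; firefly luciferase signal is then imaged following reagent-mediated lysis.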
Giardia kill: kills Giardia lamblia | activity change, % at 7.66 µM, hits read low | Giardia lamblia trophozoite viability | actives 0.15% (n = 340,000) | AID 540267; in the data active = activity change below about -80%; inconclusive = between about -30% and that limit;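 note: parasites exposed to compound for two days anaerobically before the ATP read; % is set by controls: 0 for no effect and ±100 for the full control effect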
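Trophozoites 100 cells/well + cpd; 48 hrs, 37 deg C, anaerobic. ATPLite 1-Step added, 15-30 min RT, luminescence read (ATP-based viability).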
ALOX12 inh: blocks human arachidonate 12S-lipoxygenase; purified 12hLO, xylenol orange hydroperoxide absorbance; AID 1671190; actives 1.1% (n = 580,000); Potency, µM (top dose mostly 108 µM), inactives show at the top dose activity change, negative = inhibition, actives largely listed as inhibitors; note: potency is the fitted concentration of half-maximal effect; % is set by controls: 0 for no effect and ±100 for the full control effect
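Hydroperoxide product was detected by ferrous iron/xylenol orange as the 573 to 405 nm absorbance ratio. Arachidonic acid at 40 uM (final) was turned over for 30 min at room temperature by 150 nM human 12hLO, pH 7.0 Hepes buffer, after 15 min compound preincubation.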
* = called active by the depositor; i = inactive; ? = inconclusive; nt = no result given; [ ] = dose if it differs, or a comment. Unless noted, calls come from the whole dose curve; as a rule, active = well fitted curve in the direction sought with a large enough effect; inconclusive = small, poorly fitted or top-dose-only effect, or another doubt; inactive = no such curve, though single readings can be large; an effect the other way counts as inactive or inconclusive.

SMILES | PTHR1 agonist | ERG-DNA inh | PINK1 expr mod | miR-21 FLuc | Giardia kill | ALOX12 inh
Cc1ccsc1CN(C)C(=O)C1C2C(=O)N(c3ccc(F)cc3)C[C@@]23C=C[C@@H]1O3 (stereo not given in full) | nt | nt | nt | nt | nt | 1%
CC(=O)c1cccc(Nc2nc(-c3cccc(C)c3)nc3ccccc23)c1 | -47% | 4% | 5% | 26% | nt | 6.3µM*
CC(=O)c1cccc(Nc2nc(-c3ccc(C)cc3)nc3ccccc23)c1 | nt | nt | nt | nt | nt | 18%
CC(=O)NCCNc1nc(-c2cccc(NS(C)(=O)=O)c2)nc2ccccc12 | nt | nt | 2% | nt | nt | 2.2µM*
CCc1ccccc1NC(=O)CCN1C(=O)c2ccccc2C1=O | -10% | 1% | -3% | 0% | 1 | 91%
CC1=C/C(=C(\c2ccc(O)c(C)c2)c2ccccc2S(=O)(=O)O)C=CC1=O | i | 0% | 0% | 0% | -13 | 6.3µM*
CC1=CC(=O)C=C/C1=C(/c1ccc(O)cc1C)c1ccccc1S(=O)(=O)O | i | 10% | 1% | nt | 9 | ?
Cn1cc(S(=O)(=O)c2ccccc2)c(=O)c2cc(F)c(N3CCN(c4ccc(F)cc4)CC3)cc21 | 61µM* | -2% | 2% | 0% | nt | -9%
NS(=O)(=O)c1cccc(NC(=S)NC(=O)c2cccc([N+](=O)[O-])c2)c1 | -19% | -2% | 2% | 3% | 2 | ?
O=C(NC(=S)Nc1cccc(NC(=O)c2ccccc2)c1)c1cccc([N+](=O)[O-])c1 | -3% | -1% | 1% | -9% | -5 | 28µM*
O=C(NNC(=S)NC(=O)c1ccc(Br)cc1)c1cccc([N+](=O)[O-])c1 | -1% | -1% | 6% | -7% | 33 | 40µM*
O=C(NNC(=S)NC(=O)c1ccc(Br)cc1)c1ccc([N+](=O)[O-])cc1 | -42% | 6% | 3% | -14% | -6 | 45µM*
Cc1onc(-c2ccccc2Cl)c1C(=O)N1CCN(C)CC1 | i | -5% | 0% | 4% | -11 | 20%
CCCC(=O)N1c2ccccc2C(=C2SC(C(=O)OC)=C(C(=O)OC)S2)C(=S)C1(C)C | i | -6% | 0% | -12% | -11 | 22µM*
COC(=O)C1=C(C(=O)OC)SC(=C2C(=S)C(C)(C)N(C(=O)C(C)C)c3ccccc32)S1 | i | nt | nt | 0% | -13 | ?
O=C(Cc1csc2ccccc12)NCC1CC1 | -17% | nt | -1% | nt | nt | ?
CN1CCC(CNC(=O)Nc2csc3ccccc23)CC1 | i | 2% | 2% | -18% | -4 | 40µM*
CC(=O)Nc1ccc(NC(=O)c2ccc(COc3ccccc3Br)o2)cc1 | -10% | 29% | 7% | -7% | 5 | 8%
Cc1c(C(=O)O)cccc1-c1ccc(/C=N/Nc2ccc(Br)cc2)o1 | -25% | -1% | -2% | -30% | 5 | 45µM*
CC(C)(C)c1cc(C(=O)O)c(CN2CCCCC2)o1 | -1%[57.5 µM] | 3% | 1% | -3% | -19 | ?

Exported field by field: entries from further up
Structure: COC(=O)C1=C(C(=O)OC)SC(=C2C(=S)C(C)(C)N(C(=O)C(C)C)c3ccccc32)S1
  PTHR1 agonist = i
  ERG-DNA inh = nt
  PINK1 expr mod = nt
  miR-21 FLuc = 0%
  Giardia kill = -13
  ALOX12 inh = ?
Structure: O=C(Cc1csc2ccccc12)NCC1CC1
  PTHR1 agonist = -17%
  ERG-DNA inh = nt
  PINK1 expr mod = -1%
  miR-21 FLuc = nt
  Giardia kill = nt
  ALOX12 inh = ?
Structure: CN1CCC(CNC(=O)Nc2csc3ccccc23)CC1
  PTHR1 agonist = i
  ERG-DNA inh = 2%
  PINK1 expr mod = 2%
  miR-21 FLuc = -18%
  Giardia kill = -4
  ALOX12 inh = 40µM*

(list continues)
SMILES | PTHR1 agonist | ERG-DNA inh | PINK1 expr mod | miR-21 FLuc | Giardia kill | ALOX12 inh
Cc1cccc(C)c1OCC(=O)NCc1nnc(SCC(=O)NC2CCCCC2C)n1C (stereo not given) | -17% | -2% | 1%[38.3 µM] | 0% | 10 | 7.1µM*
O=C1c2ccccc2C(=O)N1/N=C/c1ccc(O)c(O)c1 | -7% | 0% | 1% | -21% | -14 | 22µM*
O=C1C2C3C=CC(CC3)C2C(=O)N1/N=C/c1ccc(O)c(O)c1 (stereo not given) | -10% | -3% | -1% | -52% | 25 | -28%
O=C(Nc1ccccc1N1CCOCC1)c1ccccc1NS(=O)(=O)c1ccc(F)cc1 | -11% | 1% | 2% | 3% | -3 | ?
CCOc1ccc(S(=O)(=O)Nc2ccccc2C(=O)Nc2ccccc2N2CCOCC2)cc1 | i | 4% | 11µM* | 0% | 17 | 19%
COc1cccc(C(=O)NC(=S)Nc2ccccc2N2CCCCC2)c1 | i | 5% | 9% | -7% | -8 | 40µM*
COc1ccc(C(=O)NC(=S)Nc2ccccc2N2CCOCC2)cc1Br | i | 4% | -2% | -5% | -2 | 16µM*
COc1cccc(C(=O)NC(=S)Nc2ccccc2N2CCCC2)c1 | -15% | 16% | 6% | -19% | 36 | ?
CCOc1ccc(C(=O)NC(=S)Nc2ccccc2N2CCOCC2)cc1Br | i | 11% | -1% | -5% | 8 | 25µM*
COc1ccc(C(=O)Nc2ccccc2N2CCOCC2)cc1Br | -21% | -12% | 3% | -2% | -20 | -27%

Structural class, the compounds so far with fluorine
SMILES | PTHR1 agonist | ERG-DNA inh | PINK1 expr mod | miR-21 FLuc | Giardia kill | ALOX12 inh
Cc1ccsc1CN(C)C(=O)C1C2C(=O)N(c3ccc(F)cc3)C[C@@]23C=C[C@@H]1O3 (stereo not given in full) | nt | nt | nt | nt | nt | 1%
Cn1cc(S(=O)(=O)c2ccccc2)c(=O)c2cc(F)c(N3CCN(c4ccc(F)cc4)CC3)cc21 | 61µM* | -2% | 2% | 0% | nt | -9%
O=C(Nc1ccccc1N1CCOCC1)c1ccccc1NS(=O)(=O)c1ccc(F)cc1 | -11% | 1% | 2% | 3% | -3 | ?

Next section:
SMILES | PTHR1 agonist | ERG-DNA inh | PINK1 expr mod | miR-21 FLuc | Giardia kill | ALOX12 inh
COc1ccccc1N(C(=O)CNC(=O)c1ccco1)C(C(=O)NC1CCCC1)c1ccco1 (stereo not given) | i | -2% | 1% | -7% | -13 | 23%
CC(=O)Nc1cccc(C(=O)N/N=C/c2cccc(C)n2)c1 | i | 1% | -1% | -10% | 26 | 9%
COCCn1cnnc1SCc1ccccc1Cl | nt | nt | nt | nt | nt | -17%
O=C(COC(=O)c1nc(Cl)ccc1Cl)c1ccc[nH]1 | i | 0% | -1% | nt | ? | -2%
CCOc1ccc(S(=O)(=O)Nc2cccc(-c3ccc(N4CCC(C)CC4)nn3)c2)cc1 | i | -5% | 3% | -27% | nt | ?
CCOC(=O)c1c(-c2ccccc2Cl)cn2ccccc12 | i | 18% | 8% | -2% | 2 | 0%
O=C(NC(=S)Nn1cnnc1)c1ccc(F)cc1Cl | i | -7% | 0% | 4% | -19 | 16µM*
O=C(NC(=S)Nn1cnnc1)c1ccccc1Cl | i | -14% | 1% | -1% | -21 | ?
O=C(O)/C(=C\c1c(C(=O)O)[nH]c2cc(Cl)cc(Cl)c12)c1ccccc1 | -5% | -6% | 0% | nt | 8 | 35µM*
Cc1ccc2c(c1)N(CCC(=O)NCCN1CCOCC1)C(=O)CO2 | i | -2% | nt | -2% | 2 | -13%
COc1ccc(N2CCN(C(=O)CNC(=O)Cc3ccc(Cl)cc3)CC2)cc1 | -10% | -7% | ? | 19% | 3 | 32µM*
O=C(NCc1cccnc1)C(=O)c1c[nH]c2ccccc12 | -31% | -21% | 0% | -2% | -25 | -29%
COc1ccc(C)cc1NC(=O)NC(C)c1ccncc1 (stereo not given) | i | 1% | 1% | 0% | 10 | -7%
COc1ccc(NC(=O)NC(C)c2ccncc2)cc1OC (stereo not given) | i | 7% | 11µM* | -8% | 4 | 4%
O=[N+]([O-])c1cccc2nc3ccccc3c(NCCCn3ccnc3[N+](=O)[O-])c12 | i | 3% | -7% | nt | -95* | -7%
N#Cc1c(N)nc2c(c1-c1cccc(O)c1)CCCCCC2 | i | nt | nt | 3% | -6 | -4%
